The values that follow come from patent publication US8173662B2, “Fused pyrimidines as inhibitors of nucleoside phosphorylases and nucleosidases” (Industrial Research Limited, priority 2002, dated 2012).

The chains behind the UniProt entries cited, without tags or fusion partners. Where a name states a change or a piece, a line headed by the entry shows the natural chain unless it says otherwise.
UniProt P0AF12: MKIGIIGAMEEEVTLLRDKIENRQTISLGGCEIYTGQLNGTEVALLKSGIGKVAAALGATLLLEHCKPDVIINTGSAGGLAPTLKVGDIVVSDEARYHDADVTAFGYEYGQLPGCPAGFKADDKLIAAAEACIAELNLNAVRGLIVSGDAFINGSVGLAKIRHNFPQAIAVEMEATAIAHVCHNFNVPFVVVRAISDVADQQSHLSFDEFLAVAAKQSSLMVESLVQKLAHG

The experiment has as its target E. coli MTAN (Escherichia coli, UniProt P0AF12). Nature of the experiment: Inhibition of E. coli MTAN (slow-onset inhibition, spectrophotometric assay). It counts as biochemical. The settings on record: initial inhibition constant.

`CSC[C@H]1CN(Cc2c[nH]c3c(N)ncnc23)C[C@@H]1O` [Compound 52, (3R,4S)-1-[(9-Deazaadenin-9-yl)methyl]-3-hydroxy-4-(methylthiomethyl)pyrrolidine] gave a Ki of 0.017 ± 0.002 nM.
